Target: T1, Alpha-1A adrenergic receptor (Rattus norvegicus, UniProt P43140)
T1 sequence (P43140 whole entry): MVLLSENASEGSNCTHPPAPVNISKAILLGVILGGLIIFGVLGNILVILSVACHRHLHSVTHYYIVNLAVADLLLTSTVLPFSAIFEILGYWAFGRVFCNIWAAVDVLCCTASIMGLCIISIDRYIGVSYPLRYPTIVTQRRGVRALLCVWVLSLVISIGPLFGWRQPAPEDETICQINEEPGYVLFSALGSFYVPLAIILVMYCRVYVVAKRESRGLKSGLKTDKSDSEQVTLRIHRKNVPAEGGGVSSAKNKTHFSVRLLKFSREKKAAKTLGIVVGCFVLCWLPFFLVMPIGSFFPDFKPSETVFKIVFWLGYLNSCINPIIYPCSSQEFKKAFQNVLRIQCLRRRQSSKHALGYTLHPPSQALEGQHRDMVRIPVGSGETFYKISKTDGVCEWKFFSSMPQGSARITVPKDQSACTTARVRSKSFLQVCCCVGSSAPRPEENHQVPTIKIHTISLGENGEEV

## c1ccc2c(CC3=NCCN3)cccc2c1 [Naphazoline]
  Ki: 5.7 nM

— BindingDB's records for PubMed 17827 (1977)
